## Ab-14 heavy chain CDR variants: yeast mating affinities

All variants were tested on one target, the spike HR2 peptide PDVDLGDISGINAS (SARS-CoV-2).

Ab-14 is the parent antibody, in scFv form: VH, then a (GGGGS)3 linker, then VL. The light chain is unchanged in all variants.
VH: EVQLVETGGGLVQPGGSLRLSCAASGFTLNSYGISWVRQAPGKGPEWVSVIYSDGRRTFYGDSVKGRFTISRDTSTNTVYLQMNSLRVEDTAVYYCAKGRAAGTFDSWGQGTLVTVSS
VL: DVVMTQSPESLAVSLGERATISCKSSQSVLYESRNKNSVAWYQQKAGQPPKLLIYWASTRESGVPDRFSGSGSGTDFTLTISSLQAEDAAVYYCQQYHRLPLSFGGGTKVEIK

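The starting antibody came from a phage panning campaign against this peptide. Designed CDR sequences, proposed from the first random library and measured here. Their group label is 14H_En_Gen (En: ensemble of fine-tuned language models; Gen: genetic algorithm). AlphaSeq pools MATa yeast showing the antibodies with MATalpha yeast showing the peptide. After mating in shaken culture at 30 °C for 16 h, diploids were selected and their barcode pairs sequenced. The ratio of observed to expected reads was calibrated, replicate by replicate, on BCL2-family standards whose Kd was known from biolayer interferometry. Each pool was mated in six replicate cultures.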

Each variant is given by its three heavy chain CDRs, as the data file delimits them; those of the parent are GFTLNSYGIS, VIYSDGRRTFYGDSVK, GRAAGTFDS.
Affinities are written as log10 Kd with Kd in nM; a lower number is a better binder.
An entry "ND" has no value in the source: the pair was not observed among the diploids in that replicate. This suggests poor binding but is not conclusive.

| CDR-H1 | CDR-H2 | CDR-H3 | replicates, log10 nM | empty controls |
|---|---|---|---|---|
| GFDLNEYGIS | VIYADGMRTAYADDVK | GNQAGTFDV | -0.11 / -0.50 / -0.48 / -0.32 / -0.49 / -0.23 | 0/18 |
| GFDLNEYGIS | VIYADGMRTAYADSVK | GNNGGTFDV | 0.67 / 0.61 / 0.66 / 1.09 / 0.41 / 0.59 | 0/18 |
| GFDLNEYGIS | VIYADGKRTFYADSVK | GEVAGTFDL | 0.24 / -0.04 / -0.19 / 0.39 / 0.43 / 0.22 | 0/18 |
| GFDLDEYGIS | VIYADGRRTAYSDSVK | GNVAGTFDT | -0.28 / -0.62 / -0.57 / -0.23 / -0.34 / -0.58 | 0/18 |
| GFDLNEYGIS | VIYADGQRTAYADSVK | GETAGTFDM | ND / 0.56 / 2.05 / ND / ND / 1.20 | 0/18 |
| GFDLDEYGIS | VIYADGMRTVYADSVK | GNNAGTFDI | 1.16 / 0.52 / 0.56 / 0.87 / 0.62 / 1.81 | 0/18 |
| GFDLNEYGIS | VIYADGQRTAYTDSVK | GENAGTFDM | -0.65 / -0.20 / 0.13 / 0.21 / 0.15 / -0.35 | 0/18 |
| GFDLDEYGIS | VIYADGVRTAYSDSVK | GNTAGTFDV | -0.19 / -0.51 / -1.07 / -0.60 / -0.91 / -0.42 | 0/18 |
| GFDLNEYGIS | VIYADGVRTAYADSVK | GANAGTFDL | -0.61 / -0.71 / -0.58 / -0.67 / -0.69 / -0.31 | 0/18 |
| GFDLNEYGIS | VIYADGQRTFYADSVK | GENAGTFDV | -0.05 / -0.08 / -0.38 / -0.33 / -0.38 / -0.21 | 0/18 |
| GFDLNEYGIS | VIYADGRRTAYADKVK | GNVAGTFDL | -0.54 / -0.57 / -0.56 / -0.60 / -0.58 / -0.30 | 0/18 |
| GFDLNEYGIS | VIYADGKRTAYSDSVK | GNEAGTFDQ | -0.01 / -0.25 / -0.25 / -0.55 / -0.39 / -0.22 | 0/18 |
| GFDLNEYGIS | VIYADGQRTVYADSVK | GNVAGTFDQ | 0.15 / 0.27 / 0.40 / 0.18 / 0.58 / 0.89 | 0/18 |
| GFDLNEYGIS | VIYADGKRTVYADSVK | GNEAGTFDV | -0.48 / -0.46 / -0.64 / -0.60 / -0.69 / -0.36 | 2/18 (2.29) |
| GFDLNEYGIS | VIYADGSRTAYVDSVK | GNVAGTFDL | -0.16 / -0.33 / -0.47 / -0.71 / -0.43 / -0.31 | 0/18 |
| GFDLNEYGIS | VIYADGVRTAYADDVK | GENAGTFDQ | -0.59 / -1.42 / -0.56 / -1.50 / -0.59 / -0.87 | 0/18 |
| GFDLNEYGIS | VIYADGQRTAYSDSVK | GQNAGTFDI | -0.71 / -1.15 / -0.23 / -1.06 / -0.85 / -0.62 | 0/18 |
| GFDLDEYGIS | VIYADGMRTFYADDVK | GENAGTFDL | -0.34 / -0.37 / -0.54 / -0.73 / -0.72 / -0.39 | 0/18 |
| GFDLNEYGIS | VIYADGVRKAYADSVK | GENAGTFDI | -0.42 / -0.71 / -0.65 / -0.67 / -0.63 / -0.42 | 0/18 |
| GFDLNEYGIS | VIYADGKRTAYADKVK | GGNAGTFDV | 0.20 / -0.60 / -0.88 / -0.72 / -0.62 / -0.49 | 0/18 |
| GFDLNEYGIS | VIYADGLRTAYADSVK | GQNAGTFDV | -0.46 / -0.27 / 0.35 / -0.30 / -0.46 / -0.86 | 0/18 |
| GFDLNEYGIS | VIYADGMRTFYTDSVK | GNVAGTFDV | -0.77 / -0.98 / -1.23 / -1.32 / -1.17 / -0.82 | 0/18 |
| GFDLNEYGIS | VIYADGVRTAYADNVK | GNQAGTFDV | -0.02 / -0.49 / -0.49 / -0.69 / -0.58 / -0.05 | 0/18 |
| GFDLDEYGIS | VIYADGRRTAYSDDVK | GENAGTFDV | 0.25 / -0.20 / -0.55 / -0.81 / -0.10 / -0.08 | 0/18 |
| GFDLNEYGIS | VIYADGLRTSYADSVK | GNVAGTFDV | -0.57 / -0.60 / -0.42 / -0.49 / -0.57 / 0.12 | 0/18 |
| GFDLDEYGIS | VIYADGKRTAYADSVK | GGVAGTFDV | -0.98 / -1.12 / -0.82 / -1.16 / -1.14 / -1.33 | 0/18 |
| GFDLNEYGIS | VIYADGMRTVYADSVK | GTNAGTFDM | -0.38 / -0.40 / -0.54 / -0.32 / -0.60 / -0.14 | 0/18 |
| GFDLNEYGIS | VIYADGMRTAYSDSVK | GNVAGTFVQ | -0.25 / -0.08 / -0.99 / -0.49 / -0.84 / -0.80 | 0/18 |
| GFDLNEYGIS | VIYADGVRTSYADSVK | GNVAGTFDI | -0.23 / -0.23 / -0.35 / -0.36 / -0.22 / -0.35 | 0/18 |
| GFDLNEYGIS | VIYADGQRTAYVDSVK | GNNAGTFDV | -0.54 / -0.69 / -1.04 / -1.12 / -0.72 / -0.42 | 0/18 |
| GFDLNEYGIS | VIYADGVRTAYTDSVK | GNNAGTFDI | -0.14 / -0.52 / -0.39 / -0.53 / -0.54 / -0.31 | 0/18 |
| GFNLDEYGIS | VIYADGQRTAYADSVK | GNVAGTFDI | -0.60 / -0.59 / -0.77 / -0.65 / -0.48 / -0.07 | 0/18 |
| GFDLNEYGIS | VIYADGVRTAYADSVK | GNVAGTFDL | -0.99 / -0.80 / -1.03 / -1.11 / -0.45 / -1.01 | 0/18 |
| GFDLNEYGIS | VIYADGMRTAYSDNVK | GEVAGTFDV | -0.43 / -0.66 / -0.51 / -0.75 / -0.64 / -0.22 | 0/18 |
| GFDLNEYGIS | VIYADGKRTAYADDVK | GTNAGTFDI | ND / -0.04 / 0.45 / ND / ND / ND | 0/18 |
| GFDLNEYGIS | VIYADGRRTVYADSVK | GENAGTFDV | 0.03 / 0.20 / 0.31 / -0.18 / 0.92 / 0.25 | 1/18 (1.10) |
| GFDLDEYGIS | VIYADGSRTAYTDSVK | GNVAGTFDL | -0.54 / -0.49 / 0.01 / -0.19 / -0.23 / -0.21 | 0/18 |
| GFDLNEYGIS | VIYADGRRTAYADNVK | GNVAGTFDQ | -0.21 / -0.22 / -0.59 / -0.48 / -0.37 / -0.06 | 0/18 |
| GFDLNEYGIS | VIYADGVRTAYIDSVK | GNVAGTFDT | -0.53 / -0.48 / -0.63 / -0.62 / -0.93 / -0.35 | 2/18 (2.42) |
| GFDLNEYGIS | VIYADGRRTAYTDSVK | GETAGTFDV | ND / -0.67 / 0.11 / -0.17 / 0.26 / -0.44 | 0/18 |
| GFDLNEYGIS | VIYADGMRTQYADSVK | GQNAGTFDV | 1.13 / 0.50 / 0.06 / 0.24 / 0.52 / 0.51 | 1/18 (1.30) |

The closing 6 entries, repeated:

CDR-H1	CDR-H2	CDR-H3	replicates, log10 nM	empty controls
GFDLNEYGIS	VIYADGRRTVYADSVK	GENAGTFDV	0.03 / 0.20 / 0.31 / -0.18 / 0.92 / 0.25	1/18 (1.10)
GFDLDEYGIS	VIYADGSRTAYTDSVK	GNVAGTFDL	-0.54 / -0.49 / 0.01 / -0.19 / -0.23 / -0.21	0/18
GFDLNEYGIS	VIYADGRRTAYADNVK	GNVAGTFDQ	-0.21 / -0.22 / -0.59 / -0.48 / -0.37 / -0.06	0/18
GFDLNEYGIS	VIYADGVRTAYIDSVK	GNVAGTFDT	-0.53 / -0.48 / -0.63 / -0.62 / -0.93 / -0.35	2/18 (2.42)
GFDLNEYGIS	VIYADGRRTAYTDSVK	GETAGTFDV	ND / -0.67 / 0.11 / -0.17 / 0.26 / -0.44	0/18
GFDLNEYGIS	VIYADGMRTQYADSVK	GQNAGTFDV	1.13 / 0.50 / 0.06 / 0.24 / 0.52 / 0.51	1/18 (1.30)

The authors' rule: three or more of the six replicates give a measured affinity, fewer mean a poor binder.
Of ten entries with the parent sequence, four were seen in most replicates (averages 0.34 to 2.37), three in one and three in none, so single entries are noisy.
Values of this round are not directly comparable with the first-round values of the same sequences.
Nonspecific signal, from three strains lacking the peptide, appeared in 1% of pairings of all heavy chain designs, centred on 2.08 (5% of these signals below 0.84); values are not corrected for it. The control count says in how many pairings with the empty strains this scFv gave a signal, with their mean in brackets.

From the AlphaSeq antibody data of Li et al. 2023 (doi:10.1038/s41467-023-39022-2), copy in the FLAb collection.